{"source": "patent EP0263506B1", "about": "“Anticonvulsant composition containing amino acid derivative and use of said amino acid derivative” (priority 1986, dated 1988)", "tested_on": "male Carworth Farms #1 mice", "assay": "Rotorod Test (Tox), neurologic toxicity", "type": "in vivo", "conditions": "Median Toxic Dose, comparison drugs", "data": [{"compound": "CCC1(c2ccccc2)C(=O)NC(=O)NC1=O", "note": "[phenobarbital]", "values": [{"measurement": "Tox TD50", "result": 69, "unit": "mg/kg"}]}]}
